For test [1], the target named is glucagon-like peptide-1 receptor, recombinant in HEK293-H188 c24 cells (human) (UniProt P43220).
Test [2] concerns the target rat glucagon receptor (rat) (UniProt P30082).
Test [3] addresses glucagon-like peptide-1 receptor, recombinant in HEK293-H188 c24 cells (human) (UniProt P43220). The source holds these as a separate data set.

Chains of the proteins cited; added tags and fusions are not shown. Residues count along the entry.
UniProt P43220, 24-463: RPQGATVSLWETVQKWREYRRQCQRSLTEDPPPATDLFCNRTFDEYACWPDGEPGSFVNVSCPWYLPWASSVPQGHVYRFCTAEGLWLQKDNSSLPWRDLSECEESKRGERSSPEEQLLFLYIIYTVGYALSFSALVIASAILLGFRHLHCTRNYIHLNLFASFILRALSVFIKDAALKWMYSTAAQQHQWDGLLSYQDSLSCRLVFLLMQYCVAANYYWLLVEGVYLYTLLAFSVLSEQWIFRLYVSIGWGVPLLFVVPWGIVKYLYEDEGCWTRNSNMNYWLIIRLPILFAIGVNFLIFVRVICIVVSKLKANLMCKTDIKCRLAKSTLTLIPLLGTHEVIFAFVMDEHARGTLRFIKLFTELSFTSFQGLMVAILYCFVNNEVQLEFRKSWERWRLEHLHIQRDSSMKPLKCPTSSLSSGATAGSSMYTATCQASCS
UniProt P30082, 27-485: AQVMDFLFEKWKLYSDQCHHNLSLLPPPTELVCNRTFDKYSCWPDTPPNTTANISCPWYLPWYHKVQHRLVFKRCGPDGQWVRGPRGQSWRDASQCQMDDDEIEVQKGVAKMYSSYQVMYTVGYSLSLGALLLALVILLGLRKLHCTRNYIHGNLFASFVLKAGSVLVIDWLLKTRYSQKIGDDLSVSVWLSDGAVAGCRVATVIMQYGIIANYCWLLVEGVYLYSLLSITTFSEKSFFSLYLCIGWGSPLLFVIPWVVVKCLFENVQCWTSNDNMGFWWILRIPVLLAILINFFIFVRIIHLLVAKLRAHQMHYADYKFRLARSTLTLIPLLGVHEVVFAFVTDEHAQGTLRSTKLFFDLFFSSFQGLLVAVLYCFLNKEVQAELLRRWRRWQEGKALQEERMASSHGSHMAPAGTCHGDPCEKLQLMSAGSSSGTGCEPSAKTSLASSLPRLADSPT

In the case of Exendin-[9–39] (peptide), in test [1], the block of the action of GLP-1 to raise cAMP (H188 FRET) in HEK293-H188 c24 cells transfected with the GLP-1R; pair blocked: GLP-1 and GLP-1R came out at 18 nM; the block of the action of glucagon to raise cAMP (H188 FRET) in HEK293-H188 c24 cells transfected with the GLP-1R; pair blocked: glucagon and GLP-1R is 50 nM.
For the substance glucagon (ligand), in test [2], the rise of cAMP (H188 FRET reporter) in HEK293-GcgR cells (HEK293-H188 c24) was 570 pM.
As to GLP-1[7-36]amide (ligand), the rise of cAMP (H188 FRET reporter) in HEK293-GLP-1R cells (HEK293-H188 c24) in test [3] is 98 pM.

These data come from PMC8789663 (The Journal of Biological Chemistry, 2021).
